From patent publication US20250145693A1, “HERV-K ANTIBODY, CELL, VACCINE, AND DRUG THERAPEUTICS” (priority 2021, published 2025)

System: 4T1pLVXKenv tumors
Assay: 4T1pLVXKenv combination treatment, Treg cells
Format: in vivo, mouse
Details: pLVXKenv vs pLVX; 6H5 once, IL2 for five days
Procedure: FIG. 23. RT-PCR was used to determine the expression of HERV-K env gene SU and TM in 4T1 or B16F10 cells stably transfected with pLVXKenv (full-length HERV-K SU+TM) or pLVX and analyzed for expression using HERV-K type 1 SU or TM primers. FIG. 23A. BALB/c mice were inoculated with 3×10^5 4T1pLVXKenv or 4T1pLVX cells on day 0. These mice were then treated: FIG. 23B with CpG (1.24 nmol), HERV-K SU protein (10 μg, 20 μg, and 20 μg), or CpG+ HERV-K SU protein on days 6, 13, and 19. Tumor weights were compared at week 4 post tumor cell inoculation; (FIG. 23C) with Aza (0.5 mg/kg) daily for five days in two weekly cycles, anti-PD-1 (200 μg per mouse every four days; four treatments), or Aza+anti-PD-1. Mice treated with PBS were used as controls, and tumor weights were compared among groups; and (FIG. 23D) with anti-HERV-K antibody (6H5; once) and with IL2 (for five days). […] (*=P<0.05, **=P<0.01, and ***=P<0.001).
HERV-K/checkpoint blockade, HERV-K/DNA hypomethylation and HERV-K/interleukin combined therapy. Murine mammary tumor cells (4T1) or melanoma cells (B16F10) were engineered to express HERV-K Env34 to produce syngeneic models of HERV-K crucial for studying the role of the anti-tumor immune response. […]

Q: How did the “T regulatory (Treg) cells” value turn out when IL-2: interleukin was run?
A: Its value is “Significantly decreased T regulatory (Treg) cells”.
